# According to patent US20060229358A1, “Pharmaceutical composition containing flavonoids” (Taipei Medical University, priority 2005, published 2006):
# Assays:
# [1] = tested on: high affinity rolipram binding sites (HARBS, PDE4H); assay: Binding to particulate HARBS of whole brain, displacement of [3H]-rolipram (Assay II); design: species or system guinea pig; details: HARBS 50% binding concentration over PDE4 IC50
# Method: The binding experiments are carried on basis of the methods of Schneider et al. and Zhao et al. with a small modification. Under a protocol approved by the Animal Care and Use Committee of Taipei Medical University, five male guinea pigs (Hartley), weighing 500-600 g, were anesthetized. The whole brains taken therefrom were homogenized with in 10 volumes of cold medium (pH 6.5) containing 20 mM Bis-Tris, 2 mM benzamidine, 2 mM EDTA, 50 mM sodium chloride, 0.1 mM phenylmethanesulfonyl fluoride (PMSF), and 1 mM dithiothreitol. At 4° C., the homogenate was centrifuged at 170 g for 15 min for removing blood vessels and connective tissues, and the supernatant thereof was then re-centrifuged at 40,000 g for 30 min for separating the particulates from the cytosol of cells. […]
# The respective binding abilities of the test drugs (flavonoids) to membrane HARBS are performed in a 25 μl of reaction solution, containing 10 μl of [^3H]-rolipram, 10 μl of particulate suspension, and 5 μl of test drugs or selective PDE4 inhibitors for 60 min at 30° C., wherein the reaction buffer contained 50 mM Tris-HCl, 5 mM MgCl2 (pH 7.5). […] The Whatman GF/B filter was mixed with 2 ml of cocktail and counted by the β-scintillation counter (Backman, Fullerton, Calif., USA) for counting the radioactivity thereof.
# PDE4 = assay: Inhibition of cyclic nucleotide PDE activity (Assay I), PDE4, incl. Lineweaver-Burk analysis; format: biochemical, guinea pig; details: from the IC50s of Table 2
smiles,measurement,setting,value
COc1ccc(C2CC(=O)c3c(O)cc(O)cc3O2)cc1O (centres unmarked) [Hesperetin],PDE4H/PDE4L ratio,[1],greater than 11
same,selectivity among PDE1-5,PDE4,more-selective inhibition on PDE4
